Literature values as cited in patent US20070243268A1, “Compositions for regulating intestinal disorders and methods of use thereof” (priority 2005, published 2007).

Conditions: fingernail brittleness and hair loss as main criteria

## [Se] [selenium]
  daily intake at which chronic selenium toxicity (selenosis) occurs: about 5 mg
